Tested on: HUVEC
Assay: MTT cytotoxicity assay
Type: cell-based, human
Method: FIG. 32. Duramycin conjugate is not cytotoxic. The naturally occurring duramycin compound and the biotinylated duramycin construct, DLB were tested for cytotoxic effects on human umbilical vein endothelial cells (HUVEC) using an MTT assay.
The biotinylated duramycin construct DLB was prepared as described in Example XV. The unmodified duramycin compound and DLB were tested for cytotoxic effects on HUVEC using an MTT assay.

duramycin
cytotoxic effects on HUVEC: dose-dependent toxicity
